Data taken from paper PMC7465369.

Legend:
[1] = biological target: human 8-oxoguanine–DNA glycosylase (OGG1) (human) (UniProt O15527)
[2] = biological target: human 8-oxoguanine–DNA glycosylase (OGG1) (human) (UniProt O15527); test: MST; 30 nM His6-OGG1 labeled with red Tris-NTA dye, titrated with unlabeled POLβ; 100 mM Tris-HCl pH 7.5, 10 mM MgCl2, 1% glycerol; Monolith NT.115; one-site-binding model

Row | enhancement of OGG1 turnover (cleavage of the labeled secondary substrate, two-substrate displacement assay), 10 nM POLβ, OGG1 on the template or the downstream strand [1] | Kd [2] | Substance
1 | > 2 fold |  | rat DNA polymerase β (POLβ) (from UniProt P06766 1-335) (enzyme)
2 |  | 580 nM | rat DNA polymerase β (POLβ) (from UniProt P06766 1-335) (enzyme; other documents disagree on this pair)
